The record followed here is PubChem BioAssay AID598 (SRMLSC, 2007).

The list shows a part of the results, in another mix than the full data. Active and inactive are the calls of the source.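 Rule for the calls: active = viability at or below 40%; inactive = viability above 40%.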

The experiment in a line: proliferation blockers of H69AR lung cancer cells, primary screen, cell-based, human, 86K library (AID 598).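 Note: multidrug resistant small cell line overexpressing MRP-1 efflux transporter; 100% = mean luminescence of untreated control wells.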 Particulars: H69AR lung tumor viability, ATP luminescence, 72 h; at 10 µM; stronger effect = lower value.
A word on the viability: it is a read-out of living cells in per cent, often relative to untreated cells. On to `CN(C)CCOC(=O)C(O)(c1ccccc1)C1CCCCC1` (stereo unspecified), for which the viability was inactive: 98%.
Take `CP(=O)(Nc1ccc2c(c1)OCCO2)Oc1ccccc1` (stereo unspecified): the viability is inactive: 95%.
The result for `Cc1ccccc1NP(C)(=O)Nc1ccccc1C` reads inactive: 90.5%; that for `CP(=O)(Nc1ccccc1F)Oc1ccccc1` (stereo unspecified), inactive: 93.2%.
`CCN(CC)CCCOC(=O)C(O)(c1ccccc1)C1CCCCC1` (stereo unspecified): the viability was inactive: 83.8%.
For the compound `CP(=O)(Nc1ccccc1)Oc1ccc(F)cc1` (stereo unspecified), the viability was inactive: 96.8%.
Regarding `COc1ccccc1OP(C)(=O)Nc1ccc(C)c(C)c1` (stereo unspecified), the viability is inactive: 89.9%.
The result for `Cc1nc2ccc3ccccc3c2o1.O=[N+]([O-])c1cc([N+](=O)[O-])c(O)c([N+](=O)[O-])c1` reads inactive: 100%; that for `COc1ccc(OP(C)(=O)Nc2ccccn2)cc1` (stereo unspecified), inactive: 97.3%; that for `CN(C)CCOC(=O)C(O)(c1ccccc1)C1CCCC1` (stereo unspecified), inactive: 104%.
In the case of `Cc1c(NP(C)(=O)Oc2ccc(C(C)C)cc2)c(=O)n(-c2ccccc2)n1C` (stereo unspecified), the viability was inactive: 89.4%.
Turning to `CP(=O)(Nc1ccccn1)Oc1ccccc1` (stereo unspecified), the viability is inactive: 89.9%.
Turning to `COc1ccccc1OP(C)(=O)Nc1ccc(C)cc1C` (stereo unspecified), the viability was inactive: 78.8%.
The result for `CCc1ccc(OP(C)(=O)O)cc1` reads inactive: 93.6%; that for `COc1ccccc1OP(C)(=O)Nc1c(C)n(C)n(-c2ccccc2)c1=O` (stereo unspecified), inactive: 91.3%; that for `CP(=O)(Oc1ccccc1)N1CCOC1=O` (stereo unspecified), inactive: 104%.
Turning to `CC(C)(C)c1ccc(OP(C)(=O)O)cc1`, the viability was inactive: 101%.
The result for `CP(=O)(Nc1ccc(Cl)cc1)Oc1ccc(F)cc1` (stereo unspecified) reads inactive: 106%; that for `CP(=O)(OC12CC3CC(CC(C3)C1)C2)OC12CC3CC(CC(C3)C1)C2`, inactive: 96.6%.
As for `CP(=S)(Nn1cnnc1)Oc1ccccc1` (stereo unspecified), the viability was inactive: 86.1%.
For `CP(=O)(NC(=O)Nc1ccccc1)Oc1ccccc1` (stereo unspecified), the viability is inactive: 96.7%.
Next, `CCOP(C)(=S)SCC(=O)NC(C)C(=O)O` (stereo unspecified): inactive: 91.7%; `CP(=O)(Nc1ccccn1)Oc1ccc(Cl)cc1` (stereo unspecified): inactive: 101%.
Take `COc1ccccc1OP(C)(=O)Nc1ccc(C)cc1` (stereo unspecified): the viability is inactive: 82.8%.
As to `Cc1ccc(NP(C)(=O)Oc2ccccc2)c(C)c1` (stereo unspecified), the viability was inactive: 101%.
Consider `COc1ccc(OP(C)(=O)Nc2cccc(F)c2)cc1` (stereo unspecified), for which the viability is inactive: 96.7%.
`Cc1cc(C)cc(OP(C)(=O)Nc2ccc(C)cc2C)c1` (stereo unspecified): the viability is inactive: 95.5%.
Next, `Cc1ccc(C)c(NP(C)(=O)Oc2ccccc2)c1` (stereo unspecified): inactive: 97.1%; `Cc1cc(C)cc(OP(C)(=O)Nc2ccccn2)c1` (stereo unspecified): inactive: 100%.
With `Cc1nc2ccc3ccccc3c2s1.O=[N+]([O-])c1cc([N+](=O)[O-])c(O)c([N+](=O)[O-])c1`, the viability is inactive: 87.3%.
For the compound `COc1ccccc1OP(C)(=O)Nc1c(C)cccc1C` (stereo unspecified), the viability is inactive: 96.5%.
